The values that follow come from US20150307603A1 (MODIQUEST B V, published 2015).

Assay [1] deals with T1, peptide no. 10 (human histone 2A) (human, X at position 6 = citrulline; biotin-labelled).
T1 construct: also called peptide 10
T1 peptide: TRIIPXHLQLAI
Kind of assay: ELISA, Ab 0.08 ug/well. As to the method: (§1) Biotin and citrulline-containing peptides derived from histone 2A were immobilized on NEUTRAVIDIN®-coated 96-well ELISA plates (0.3 μg/well). CFC-1 and CFC-0 were coated at the same concentration and served as positive and negative controls, respectively, for specific anti-citrulline reactivity and as coating controls. Non-coated wells were used to test for aspecific binding of the antibodies. […] Detection of bound anti-citrulline antibodies was performed by incubating the wells with rabbit anti-human HRP (1:2000) for 1 hour at RT followed by incubation with TMB substrate. The resulting OD (y-axis) is a measure for antibody binding.
(§2) To further pinpoint the exact citrullinated epitope on H2A that is recognized by RhmAb2.102, biotin-labeled peptides as shown in Table 4 were synthesized containing potential deimination sites of histone 2A. These peptides were coated on 96-well NEUTRAVIDIN®-ELISA plates and incubated with serial dilutions of RhmAb2.101 and RhmAb2.102.
(In general: An ELISA detects its analyte on a solid surface through an enzyme-linked reagent.)

Assay [2] addresses T2, peptide no. 7 (human histone 2A) (human, X at position 6 = citrulline; biotin-labelled).
T2 construct: also called peptide 7
T2 peptide: GNYSEXVGAGAP
In words: ELISA, Ab 0.08 ug/well. The procedure: as §1, §2

Assay [3] deals with T1, peptide no. 10 (human histone 2A). Kind of assay: ELISA, Ab 0.00064 ug/well. The procedure:
as §1, §2

Assay [4] concerns the target T3, peptide no. 3 (human histone 2A) (human, X at position 6 = citrulline; biotin-labelled).
T3 construct: also called peptide 3
T3 peptide: KSRSSXAGLQFP
Kind of assay: ELISA, Ab 0.00064 ug/well. As to the method: as §1, §2

Assay [5] addresses T4, peptide no. 12 (human histone 2A) (human, X at position 6 = citrulline; biotin-labelled).
T4 construct: also called peptide 12
T4 peptide: NKLLGXVTIAQG
In words: ELISA, Ab 0.00064 ug/well. As to the method: as §1, §2

The target of assay [6] is T5, peptide no. 6 (human histone 2A) (human, X at position 6 = citrulline; biotin-labelled).
T5 construct: also called peptide 6
T5 peptide: VHRLLXKGNYSE
Kind of assay: ELISA, Ab 0.00064 ug/well. As to the method:
as §1, §2

Assay [7] deals with T6, human recombinant histone 3 (human).
T6 construct: Non-deiminated; also called H3
Kind of assay: ELISA, Ab 2 ug/well. From the text: (§3) The resulting OD (y-axis) is a measure for antibody binding. H1-recombinant histone 1; H1/p2-huPAD2 recombinant histone 1; H1/p4-huPAD4 recombinant histone 1, and so forth (x-axis).
(§4) In order to further analyze which deiminated histone or histones are involved in the therapeutic action of RhmAb2.102, RhmAb2.108, RhmAb2.109, RhmAb2.110, RhmAb2.111 RhmAb2.112, RmmAb22.101, and RmmAb22.102, commercially available histones (H1, H2A, H2B, H3 and H4) were deiminated with human peptidylarginine deiminase (PAD, EC 3.5.3.15) enzymes (huPAD2 or huPAD4). Deiminated as well as non-deiminated histones were coated on 96-well ELISA plates and incubated with serial dilutions of RhmAb2.101 and RhmAb2.102.

Assay [8] addresses T7, peptide no. 4 (human histone 2A) (human, X at position 6 = citrulline; biotin-labelled).
T7 construct: also called peptide 4
T7 peptide: QFPVGXVHRLLR
In words: ELISA, Ab 0.000128 ug/well. The procedure: as §1

The target in assay [9] is T4, peptide no. 12 (human histone 2A). In words: ELISA, Ab 0.000128 ug/well. The procedure:
as §1

Assay [10] concerns the target T2, peptide no. 7 (human histone 2A). Kind of assay: ELISA, Ab 0.000128 ug/well. The procedure:
as §1

The target in assay [11] is T3, peptide no. 3 (human histone 2A). Kind of assay: ELISA, Ab 0.0032 ug/well. As to the method: as §1, §2
Assay [12] addresses T5, peptide no. 6 (human histone 2A). In words: ELISA, Ab 0.0032 ug/well. The procedure:
as §1, §2

For assay [13], the target named is T8, peptide no. 9 (human histone 2A) (human, X at position 6 = citrulline; biotin-labelled).
T8 construct: also called peptide 9
T8 peptide: DNKKTXIIPRHL
Kind of assay: ELISA, Ab 0.0032 ug/well. The procedure: as §1, §2

The target of assay [14] is T6, human recombinant histone 3. Kind of assay: ELISA, Ab 10 ug/well.
Source text: as §3, §4

B1: RhmAb2.102 (antibody, human IgG1, lambda)
heavy: not shown
light: QSVLTQPPSMSAAPGQKVTISCSGSSSNIGNNYVSWYQQVPGTAPKLLIYDDNKRPSGIPGRFSGSKSATSATLGITGLQAGDEADYYCGSWDDNLSVVLFGGGTKLTVLGQPKAAPSVTLFPPSSEELQANKATLVCLISDFYPGAVTVAWKADSSPVKAGVETTTPSKQSNNKYAASSYLSLTPEQWKSHRSYSCQVTHEGSTVEKTVAPTECS
notes: Human IgG1 lambda; also called Rhm2.102
For the molecule B1, the OD in assay [1] stood at 0.058 OD450; in assay [2] it was 0.062 OD450; in assay [3], 0.056 OD450; in assay [4] it was 0.058 OD450; in assay [5] it was 0.056 OD450; in assay [6], 0.058 OD450. For the same molecule, the OD in [7] was determined as 0.275 OD450; in assay [8], 0.058 OD450; in assay [9], 0.056 OD450; in assay [10], 0.056 OD450; in [11], 0.062 OD450; in assay [12], 0.058 OD450. Further, the figures for the OD in assay [13] and in assay [14] were 0.062 OD450 and 0.549 OD450, respectively.
